Experimental data taken from patent US20260384399A1, “INDAZOLE DERIVATIVES AS SEROTONERGIC AGENTS USEFUL FOR THE TREATMENT OF DISORDERS RELATED THERETO” (published 2026).

Amino acid sequences for entries named in this document (tags omitted).
UniProt P28223, whole entry: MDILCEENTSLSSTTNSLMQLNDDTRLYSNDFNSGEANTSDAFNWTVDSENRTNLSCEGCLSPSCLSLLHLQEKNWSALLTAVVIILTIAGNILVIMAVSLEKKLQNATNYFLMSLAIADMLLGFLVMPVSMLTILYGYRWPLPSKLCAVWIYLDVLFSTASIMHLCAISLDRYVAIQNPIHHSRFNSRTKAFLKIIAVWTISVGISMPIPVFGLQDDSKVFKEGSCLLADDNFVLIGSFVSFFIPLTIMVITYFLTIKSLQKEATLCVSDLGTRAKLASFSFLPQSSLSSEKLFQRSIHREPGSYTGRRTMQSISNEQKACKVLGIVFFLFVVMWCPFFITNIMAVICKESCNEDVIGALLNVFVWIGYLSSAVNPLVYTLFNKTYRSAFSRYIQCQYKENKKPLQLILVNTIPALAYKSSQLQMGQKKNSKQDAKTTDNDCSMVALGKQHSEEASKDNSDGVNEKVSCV
UniProt P08908, whole entry: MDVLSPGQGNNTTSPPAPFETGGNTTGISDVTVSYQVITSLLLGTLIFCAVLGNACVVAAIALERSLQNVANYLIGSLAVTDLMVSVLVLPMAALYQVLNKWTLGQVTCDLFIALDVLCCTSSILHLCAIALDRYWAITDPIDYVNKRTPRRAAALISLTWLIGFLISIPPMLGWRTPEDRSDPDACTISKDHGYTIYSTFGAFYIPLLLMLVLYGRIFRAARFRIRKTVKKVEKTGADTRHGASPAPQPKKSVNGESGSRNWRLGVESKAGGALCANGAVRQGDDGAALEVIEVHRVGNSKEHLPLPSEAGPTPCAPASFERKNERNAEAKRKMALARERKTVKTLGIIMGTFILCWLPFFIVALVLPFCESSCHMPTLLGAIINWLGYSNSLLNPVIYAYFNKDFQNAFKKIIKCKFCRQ

Tests used:
[1] = target: T1, human 5-hydroxytryptamine receptor 2A (5-HT2A) (Homo sapiens, UniProt P28223); experiment: Human 5-HT2A: Functional FLIPR Assay (agonist mode, calcium); conditions: human 5-HT2A FLIPR, RFU=Fmax−Fmin
[2] = target: T2, human 5-hydroxytryptamine receptor 1A (5-HT1A) (Homo sapiens, UniProt P08908); experiment: Human 5-HT1A: Radioligand Binding Assay ([3H]-8-Hydroxy-DPAT); conditions: read-out: h5-HT1A, IC50
[3] = target: T1, human 5-hydroxytryptamine receptor 2A (5-HT2A); experiment: Human 5-HT2A: Radioligand Binding Assay ([3H]-ketanserin); conditions: read-out: h5-HT2A, IC50
[4] = target: T2, human 5-hydroxytryptamine receptor 1A (5-HT1A); experiment: Human 5-HT1A: Functional FLIPR Assay (agonist mode, calcium); conditions: for RFU@10 μM: human 5-HT1A FLIPR, RFU=Fmax−Fmin
[5] = Liver Microsomes Stability, rat; conditions: for Predicted hepatic CL / Scaled-up CLint / CLint / T1/2: rat liver microsomes, with NADPH; for CLint / T1/2: 2 μM; for Remaining Percentage (%): rat
[6] = Liver Microsomes Stability, human; conditions: for Predicted hepatic CL / Scaled-up CLint / CLint / T1/2: human liver microsomes, with NADPH; for CLint / T1/2: 2 μM; for Remaining Percentage (%): human
[7] = system: treatment resistant, major depressive disorder and cancer-related psychosocial distress; conditions: double-blind placebo-controlled phase 2 studies; cited from earlier work
[8] = controlled setting; dose-related; cited from earlier work
5-HT1A receptors = conditions: in words; cited from earlier work
[9] = system: depression and anxiety associated with life-threatening disease; conditions: supportive setting; cited from earlier work
default mode network = conditions: intravenous, humans; cited from earlier work
tobacco use disorder = conditions: six months follow-up; cited from earlier work
human 5-HT2A receptor = conditions: compared with the rat receptor; cited from earlier work
frontal cortical regions = conditions: 15 or 20 mg orally, healthy participants; cited from earlier work
5-HT2 receptor = conditions: daily administration; cited from earlier work
[10] = system: low attentive and low motivated rats; conditions: doses below the threshold for wet dog shake response; cited from earlier work
heroin addiction = conditions: compared to controls at long-term follow-ups; cited from earlier work

## COc1ccc2cnn(CCN(C)C)c2c1
[1]
  RFU@10 μM: 463 RFU
[2]
  IC50: 46.8 nM
[3]
  IC50: 5210 nM
[4]
  RFU@10 μM: 1164 RFU

## CN(C)CCn1ncc2ccc(F)cc21
[1]
  RFU@10 μM: 491 RFU
[2]
  IC50: 616 nM
[3]
  IC50: 3400 nM
[4]
  RFU@10 μM: 268 RFU

## COc1ccc2cnn(C[C@H]3CCCN3)c2c1.Cl
[5]
  Predicted hepatic CL: 28.35 mL/min/kg
  Scaled-up CLint: 58.27 mL/min/kg
  CLint: 32.52 μL/min/mg protein
  T1/2: 0.7103 h
[5]; With Cofactors, 0 min
  Remaining Percentage (%): 100.00%
[5]; With Cofactors, 30 min
  Remaining Percentage (%): 52.52%
[5]; With Cofactors, 60 min
  Remaining Percentage (%): 37.70%
[5]; Without Cofactors, 0 min
  Remaining Percentage (%): 100.00%
[5]; Without Cofactors, 30 min
  Remaining Percentage (%): 97.92%
[5]; Without Cofactors, 60 min
  Remaining Percentage (%): 102.34%
[1]
  RFU@10 μM: 306 RFU
[6]
  Predicted hepatic CL: 3.27 mL/min/kg
  Scaled-up CLint: 3.89 mL/min/kg
  CLint: 3.10 μL/min/mg protein
  T1/2: 7.4475 h
[6]; With Cofactors, 0 min
  Remaining Percentage (%): 100.00%
[6]; With Cofactors, 30 min
  Remaining Percentage (%): 92.80%
[6]; With Cofactors, 60 min
  Remaining Percentage (%): 91.11%
[6]; Without Cofactors, 0 min
  Remaining Percentage (%): 100.00%
[6]; Without Cofactors, 30 min
  Remaining Percentage (%): 98.12%
[6]; Without Cofactors, 60 min
  Remaining Percentage (%): 96.49%
[4]
  RFU@10 μM: 1165 RFU

## [2H]C([2H])([2H])N(CCn1ncc2ccc(OC)cc21)C([2H])([2H])[2H]
[5]
  Predicted hepatic CL: 47.68 mL/min/kg
  Scaled-up CLint: 349.75 mL/min/kg
  CLint: 195.17 μL/min/mg protein
  T1/2: 0.118 h
[5]; With Cofactors, 0 min
  Remaining Percentage (%): 100.00%
[5]; With Cofactors, 30 min
  Remaining Percentage (%): 5.35%
[5]; With Cofactors, 60 min
  Remaining Percentage (%): 0.51%
[5]; Without Cofactors, 0 min
  Remaining Percentage (%): 100.00%
[5]; Without Cofactors, 30 min
  Remaining Percentage (%): 96.12%
[5]; Without Cofactors, 60 min
  Remaining Percentage (%): 94.40%
[1]
  RFU@10 μM: 523 RFU
[6]
  Predicted hepatic CL: 8.94 mL/min/kg
  Scaled-up CLint: 15.72 mL/min/kg
  CLint: 12.54 μL/min/mg protein
  T1/2: 1.8425 h
[6]; With Cofactors, 0 min
  Remaining Percentage (%): 100.00%
[6]; With Cofactors, 30 min
  Remaining Percentage (%): 82.16%
[6]; With Cofactors, 60 min
  Remaining Percentage (%): 68.65%
[6]; Without Cofactors, 0 min
  Remaining Percentage (%): 100.00%
[6]; Without Cofactors, 30 min
  Remaining Percentage (%): 96.80%
[6]; Without Cofactors, 60 min
  Remaining Percentage (%): 89.50%
[2]
  IC50: 23.8 nM
[3]
  IC50: 5170 nM
[4]
  RFU@10 μM: 2486 RFU
[4]; read-out: h5-HT1A, EC50, FLIPR functional assay, agonist mode, ND: not detected
  EC50: 3290 nM

## COc1ccc2cnn(C[C@H]3CCCN3C)c2c1
[1]
  RFU@10 μM: 251 RFU
[2]
  IC50: 420 nM
[3]
  IC50: > 30000 nM
[4]
  RFU@10 μM: 76 RFU

## Fc1ccc2cnn(C[C@H]3CCCN3)c2c1
[1]
  RFU@10 μM: 280 RFU
[2]
  IC50: 668 nM
[4]
  RFU@10 μM: 170 RFU

## CN(C)CCc1c[nH]c2cccc(OP(=O)(O)O)c12
[7]
  relief of anxiety and depression: unprecedented positive relief of anxiety and depression
[1]
  RFU@10 μM: 257 RFU
[8]
  adverse effects: transient, delayed headache
5-HT1A receptors
  activation of 5-HT1A receptors: activates 5-HT1A receptors
[9]
  anti-depressant and anxiolytic effects: significant and sustained anti-depressant and anxiolytic effects
Default mode network
  oscillatory power in areas of the brain's default mode network: decreases in oscillatory power
Tobacco use disorder
  abstinence rate: 80%
Human 5-HT2A receptor
  affinity for the human 5-HT2A receptor: stronger affinity for the human 5-HT2A receptor than for the rat receptor
[4]
  RFU@10 μM: 143 RFU
Frontal cortical regions
  absolute metabolic rate of glucose in frontal cortical regions: increased absolute metabolic rate of glucose in frontal
5-HT2 receptor
  5-HT2 receptor density in rat brain: reduce 5-HT2 receptor density in rat brain
[10]
  performance on 5 choice serial reaction time and progressive ratio tasks: improved performance

## COc1ccc2cnn(C[C@H]3CCCN3)c2c1
[2]
  IC50: 33.6 nM
[3]
  IC50: 2190 nM

## COc1ccc2cnn(C[C@@H]3CCCN3C)c2c1
[1]
  RFU@10 μM: 367 RFU
[3]
  IC50: > 30000 nM

## CN(C)CCc1c[nH]c2cccc(O)c12
[4]
  RFU@10 μM: 140 RFU

## CNC1(c2ccccc2Cl)CCCCC1=O (stereo not drawn)
Heroin addiction
  rates of abstinence: higher rates of abstinence

## CCN(CC)C(=O)[C@@H]1C=C2c3cccc4[nH]cc(c34)C[C@H]2N(C)C1
[9]
  anti-depressant and anxiolytic effects: significant and sustained anti-depressant and anxiolytic effects
Default mode network
  oscillatory power in areas of the brain's default mode network: decreases in oscillatory power
Heroin addiction
  rates of abstinence: higher rates of abstinence

## O=C(O)Cc1ccccc1Nc1c(Cl)cccc1Cl
[5]
  Predicted hepatic CL: 40.90 mL/min/kg
[6]
  Predicted hepatic CL: 18.43 mL/min/kg

## CN1CCC[C@@H]1Cn1ncc2ccc(F)cc21
[1]
  RFU@10 μM: 534 RFU
[2]
  IC50: 924 nM
[3]
  IC50: 19400 nM
[4]
  RFU@10 μM: 87 RFU

## [2H]C([2H])([2H])N(CCn1ncc2ccc(F)cc21)C([2H])([2H])[2H]
[1]
  RFU@10 μM: 599 RFU
[2]
  IC50: 486 nM
[3]
  IC50: 3580 nM
[4]
  RFU@10 μM: 162 RFU
